Experimental data published in PubChem BioAssay AID651661 (Broad Institute, 2012).
Only a part is listed here, and it is no random draw. Some results for these compounds are left out of this collection, so the calls shown say nothing about other tests. Active and inactive are the calls of the source.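 The calls were made as follows: active = mean inhibition of at least 50% after viability correction, with every replicate also passing that limit; inconclusive = mean reaches 50% but only one of two replicates passes; inactive = the rest.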

assay: EWS/Fli-driven NR0B1 reporter inhibitors, primary screen, A673 cells, NR0B1 luciferase, luminescence, MLPCN library (AID 651661); settings: viability-normalised, at 12.6 µM, active compounds read high;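 also: firefly luciferase signal divided by Alamar Blue viability fluorescence both relative to DMSO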

| Structure (SMILES) | inhibition |
| --- | --- |
| CC(C)Oc1ccc(C(=O)NCC2(N(C)C)CCCCC2)cc1 | inactive: -8.77% |
| O=C(OCCN1CCCC1)C(O)(c1ccccc1)c1ccccc1 | inactive: 3.48% |
| COc1ccc(Br)c(C(=O)NCC2(N3CCCCC3)CCCCC2)c1 | inactive: -2.33% |
| C=C(C)C#CC(O)(C(=O)OC1CCN(C)CC1)c1ccccc1 (configuration not stated) | inactive: 3.91% |
| COc1cc(C(=O)NCC2(N(C)C)CCCCC2)c([N+](=O)[O-])cc1OC | inactive: -2.96% |
| CN(C)C1(CNC(=O)c2ccc(Br)cc2)CCCCC1 | inactive: 12.7% |
| O=C(NCC1(N2CCCCC2)CCCCC1)c1cccc(Cl)c1 | inactive: -5.61% |
| COc1cccc(C(=O)NCC2(N3CCCCC3)CCCCC2)c1 | inactive: -5.13% |
| COc1ccc(Cl)cc1C(=O)NCC1(N(C)C)CCCCC1 | inactive: 1.2% |
| Cc1ccccc1C(=O)NCC1(N2CCCCC2)CCCCC1 | inactive: -2.56% |
| CN(C)c1ccc(C(=O)NCC2(N(C)C)CCCCC2)cc1 | inactive: -0.708% |
| CN(C)C1CCCC1OC(=O)C(O)(c1ccccc1)c1ccccc1 (configuration not stated) | inactive: -8.57% |
| Cc1cc(C(=O)NCC2(N3CCCCC3)CCCCC2)ccc1[N+](=O)[O-] | inactive: -12.5% |
| O=C(NCC1(N2CCCCC2)CCCCC1)c1cccc(Br)c1 | inactive: -13.8% |
| COc1ccc(C(=O)NCC2(N(C)C)CCCCC2)cc1 | inactive: 1.16% |
| C=CCN1CCN(CCOC(=O)C(O)(c2ccccc2)c2ccccc2)CC1 | inactive: 1.05% |
| O=C(NCC1(N2CCCCC2)CCCCC1)c1cc(F)c(F)cc1Cl | inactive: -0.197% |
| CN1[C@@H]2CC[C@H]1CC(OC(=O)C(O)(c1ccccc1)c1ccccc1)C2 (some centres not stated) | inactive: 1.82% |
| O=C(NCC1(N2CCCCC2)CCCCC1)c1cc([N+](=O)[O-])ccc1Cl | inactive: 4.3% |
| Cc1ccc(C(=O)NCC2(N3CCCCC3)CCCCC2)cc1 | inactive: 4.85% |
| CCN(CC)CC(C)C(C)OC(=O)C(O)(c1ccccc1)c1ccccc1 (configuration not stated) | inactive: 4.98% |
| COc1cc(SC)ccc1C(=O)NCC1(N(C)C)CCCCC1 | inactive: 6.46% |
